The values below come from patent US10426818B2, “Method and pharmaceutical composition for use in the treatment of diabetes” (INSERM (INSITUT NATIONAL DE LA SANTE ET DE LA RECHERCHE …, priority 2015, dated 2019).

In the data set the test system is overweighed healthy volunteers. The conditions noted are these: 9 and 30 nmol/kg intravenous infusion. The source says:
Two groups of 8 male, overweighed (BMI 25-30 kg/m^2) healthy volunteers were included in this study.

With (pyr1)-Apelin-13, the “influence on QTc interval” value is reported as “did not influence”, the “influence on blood pressure” value is given as “did not influence”, the “influence on heart rate” value is “did not influence” and the “side effects in relation with drug administration” value is reported as “No side effect”.
